Here are results for one substance from US20230263956A1, “INGESTIBLE DRUG DELIVERY DEVICE” (Massachusetts Institute of Technology, priority 2020, published 2023).

The nature of this series: In vivo testing: tethered device jetting insulin into the stomach wall. On the set-up: species or system Yorkshire pigs. The conditions noted are these: jet of insulin into stomach wall, 0.5 Units per kilogram, three of the five device tests. Here is the method:
Studies were performed by trained veterinary technicians at MIT's animal testing facilities. Yorkshire pigs weighing between 70 and 90 kg were used. All studies were terminal studies (meaning the animal was euthanized immediately afterward). FIG. 7 illustrates the use of a tethered device 100 which was used to deliver a jet of insulin to form depots 118 in the stomach wall of the animal. The testing protocol is described further below.
During testing, a weight of the pig was determined, and a quantity of insulin was selected to achieve a dose of 0.5 Units per kilogram (1 Unit=0.0347 mg). The powder insulin was then added to a 0.1M NaOH solution, and PF68 and HEPES were used as stabilizing agents. From there 0.1M HCl was added to assist with dissolution of the insulin, and deionized water was added if further dilution was desired. […] This formulation procedure was carried out the morning or evening before each in vivo study, and the resulting solution it was stored at 4° C. until the time of administration.
The device was loaded with API and CO2 in the operating room where the animal was sedated and intubated. […]
Blood samples were collected by ear catheter or femoral catheter. […] The blood-glucose level was monitored at each draw using commercial glucose monitoring strips. […] The samples were then subsequently analyzed with a custom Ezyme-linked immunosorbent assay (ELISA) for […].

On to insulin, for which the blood-plasma insulin concentration entry is given as “increase in blood-plasma insulin concentration”.
